Measurements reported in PubChem BioAssay AID1471 (National Center for Advancing Translational Sciences (NCATS), 2008).
The entries are a selection whose mix differs from that of the whole data set. The source made the active and inactive calls. Calls come from the whole dose curve; as a rule, active = well fitted activation curve with a large enough effect; inconclusive = small, poorly fitted or top-dose-only effect; inactive = no such curve, though single readings can be large or run the other way.

Experiment: qHTS Multiplex Assay to Identify Dual Action Probes in a Cell Model of Huntington: Cytoprotection (ATP);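 note: toxic huntingtin expression switched on by the ecdysone agonist tebufenozide; % of control where 0% means no effect; nearly all actives have a fitted effect of over 45% in size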
Details: PC12 HTT-Q103 induced, ATP luminescence, 40 h; at 56.4 µM (top of the series)
From the text: NIH Chemical Genomics Center [NCGC]
NIH Molecular Libraries Probe Production centers Network [MLPCN]
Assay Submitter (PI): Wei Zheng
Huntington's disease is a neurodegenerative disorder caused by a trinucleotide repeat expansion in Exon 1 of the Huntingtin gene. The CAG trinucleotide encodes glutamine and polyglutamine expansions cause cell death in selective areas of the brain. Huntington polyglutamine repeats have the tendency to form aggregates which are observable in later stages of the disease. The exact nature of the aggregates, whether toxic, protective, or insignificant, is unclear.
A stable PC12 cell line containing a gene fusion of Exon 1 of the Huntingtin gene linked to GFP under the control of the inducible ecdysone promoter were used as the cell-based model of Huntington Disease for high throughput screening. Exon 1 of the Huntingtin gene contained an expansion of 103 polyglutamines (Q103) which, when expressed, caused cell death and distinct, bright GFP aggregates. […] The cell death were quantified with a measurement of ATP content in the cells. […]
We optimized this assay in a homogeneous 1536 well format. A quantitative high throughput screen (qHTS) was conducted on the PC12 cells which were induced to express the toxic fusion construct. Small molecules which prevented cell death were identified by using a luminescent ATP quantification method (Perkin Elmer's ATPlite). […]

SMILES	cytoprotection (ATP increase)
CCN(CC)CCCOC(=O)C(O)(c1ccccc1)c1ccccc1	inactive: -15.5%
